The values below are quoted from earlier work in US5980939A, “Cyclosporin-containing pharmaceutical composition” (Chong Kun Dang Corp., priority 1996, dated 1999).

For the series, the system named is rat. The conditions noted are these: per oral; cited from earlier work.

As usually defined, the LD50 is the dose at which mortality reaches 50%. As to butanol, the LD50 was 4360 mg/kg.
